Target: h5-HT2C-INI (Homo sapiens, UniProt P28335)
Assay type: binding

Amino acid sequences for entries named in this document (tags omitted). Residues count along the entry.
UniProt P28335, 33-458: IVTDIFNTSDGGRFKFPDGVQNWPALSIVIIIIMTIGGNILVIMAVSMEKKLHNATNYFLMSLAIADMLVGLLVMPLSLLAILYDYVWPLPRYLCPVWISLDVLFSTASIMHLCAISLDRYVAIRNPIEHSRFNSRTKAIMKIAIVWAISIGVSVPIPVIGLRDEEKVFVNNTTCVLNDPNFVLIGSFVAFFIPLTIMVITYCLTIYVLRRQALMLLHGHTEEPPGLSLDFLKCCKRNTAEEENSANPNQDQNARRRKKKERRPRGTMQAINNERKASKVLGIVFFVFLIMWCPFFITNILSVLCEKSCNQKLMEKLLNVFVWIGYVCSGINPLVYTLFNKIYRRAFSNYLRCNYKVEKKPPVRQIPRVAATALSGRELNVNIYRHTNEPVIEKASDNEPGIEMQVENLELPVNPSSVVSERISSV

Work on `CN1C[C@@H](NS(=O)(=O)N(C)C)C[C@@H]2c3cccc4c3c(cn4C)C[C@H]21` [Mesulergine] yielded a Ki of 3.8 nM.
